# Yeast mating assay B: variants of the scFv Ab-14

Data: MIT Lincoln Laboratory AlphaSeq set, Li et al. 2023, doi:10.1038/s41467-023-39022-2, as distributed in FLAb.

Target: peptide PDVDLGDISGINAS, taken from heptad repeat 2 (HR2) of SARS-CoV-2 spike.

Parent: Ab-14, a human scFv built as VH, a 15-residue (Gly4Ser)3 linker, VL. Only the CDRs of the heavy chain vary.
VH: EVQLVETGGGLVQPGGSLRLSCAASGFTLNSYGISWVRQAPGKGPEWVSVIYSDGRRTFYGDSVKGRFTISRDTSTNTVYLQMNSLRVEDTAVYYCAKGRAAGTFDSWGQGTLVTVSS
VL: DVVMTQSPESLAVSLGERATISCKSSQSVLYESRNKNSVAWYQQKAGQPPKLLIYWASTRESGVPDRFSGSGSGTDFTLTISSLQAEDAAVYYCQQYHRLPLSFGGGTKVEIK

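Phage display of a naive human antibody library on the peptide gave the parent. The variants were designed computationally from a first round of random CDR variants and then made and measured. Their group label is 14H_GP_HC (GP: Gaussian process model; HC: hill climbing; a sequence that several methods proposed may carry one label only). The scFvs were displayed on barcoded MATa yeast, the peptide on MATalpha yeast. Pairs that bind mate more often; barcode pairs of the diploids are counted by sequencing. The ratio of observed to expected reads was calibrated, replicate by replicate, on BCL2-family standards whose Kd was known from biolayer interferometry. Each pool was mated in six replicate cultures.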

Variants are written as CDR1, CDR2 and CDR3 of the heavy chain (limits as in the source). Parent: GFTLNSYGIS, VIYSDGRRTFYGDSVK, GRAAGTFDS. The read-out is the apparent dissociation constant on a log10 scale (nM): the lower, the stronger. "nd" marks a missing value. The strain was present, yet no cells mated with the target were sequenced in that replicate, which points to weak or no binding. Three control strains display no target. For all heavy chain designs, 1% of the pairings with them gave a signal, with a median of 2.08 and one signal in twenty below 0.84, so weak values seen in few replicates may be background. For each scFv, signals with the empty controls are counted beside the result, with their mean in brackets. The authors averaged sequences with at least three values out of six and counted those with two or fewer as poor binders. The parent sequence was in this pool as ten entries: three were never detected, three once, and four in most replicates, with averages from 0.34 to 2.37. Values of this round are not directly comparable with the first-round values of the same sequences.

CDR-H1	CDR-H2	CDR-H3	log10 Kd (nM) by replicate	empty controls
LFTLNEYGIS	VIYSDGRRTFYADSVK	GRTAGTFDS	0.82 0.50 0.40 0.43 0.96 0.76	1/18 (2.10)
GFDLNEYGIS	VIYSDGRRTFYGDAVK	GRAAGTFDS	0.45 0.60 0.34 -0.07 -0.29 0.50	0/18
GFTLNDYGIS	VIYSDGQRTFYIDSVK	GRAAGTFIS	nd nd 1.99 nd nd nd	0/18
GFTLNEYGIS	VIYSDGRRTFYDDSVK	GRTAGTFDS	0.22 -0.04 0.09 -0.42 0.09 0.21	0/18
GFTLNSYGIS	VIYSDGRRTFYSDSVK	GQAAGTFDV	0.75 1.17 0.59 0.88 0.73 0.67	3/18 (2.73)
GFWLNEYGIS	VIYSDGRRTFYGDSVK	GRAAGTFDE	nd nd nd nd nd nd	0/18
GETLNEYGIS	VIYSDGRRTFYGDSVK	GRAAVTFDT	1.96 0.81 nd 0.93 0.88 nd	0/18
GFTLNEYGIS	VIYSDGRRTMYGDSVK	GRYAGTFDS	0.59 0.43 -0.22 0.73 1.85 0.22	0/18
EFTLNEYGIS	VIYSDGRRTFYTDSVK	GRQAGTFDS	0.94 0.62 1.17 0.93 0.82 0.93	1/18 (1.74)
GFTLNNYGIS	VIYSDGRRTFYDDSVK	GQTAGTFDS	0.61 -0.46 -0.14 -0.36 -0.34 -0.05	0/18
GFTLESYGIS	VIYSDGRRTFYVDSVK	GQAAGTFDS	nd 1.98 nd nd nd nd	0/18
GFTLDSYGIS	VIYSDGRRTFYDDSVK	GREAGTFDS	-0.37 0.03 -0.05 nd -0.19 0.79	0/18
GFSLNSYGIS	VIYADGRRTFYGDNVK	GRAAGTNDS	nd nd nd nd nd nd	0/18
GFTLNEYGIS	VIYSDGRRTFYGDSVK	GRAAGTFRQ	nd nd nd nd nd nd	0/18
GFKLNSYGIS	VIYSDGRRTFYSDSVK	GQAAGTFDS	1.36 0.40 nd 0.61 2.81 1.27	0/18
GFSLNEYGIS	VIYSDGRRTFYEDDVK	GRFAGTFDS	0.70 0.42 1.23 0.64 0.22 0.78	0/18
GFVLNDYGIS	VIYSDGRRTFYIDTVK	GNAAGTFDS	0.06 -0.71 -0.14 -0.33 -0.44 -0.43	0/18
GFPLNSYGIS	VIYSDGRRTFYGDSVK	GMLAGTFDS	2.00 2.09 1.07 0.52 0.92 1.59	1/18 (2.14)
GFTLESYGIS	VIYADGRRTFYGDHVK	GRAAGTFIS	nd nd nd nd nd nd	0/18
GFYLNSYGIS	VIYSDGRRTFYQDSVK	GQLAGTFDS	nd nd nd nd nd nd	0/18
GFTLNQYGIS	VIYSDGWRTFYSDSVK	GRVAGTFDS	0.12 0.06 0.15 0.19 0.10 0.42	0/18
GFTLNSYGIS	VIYADGRRTFYGDQVK	GRAAGTFMS	0.40 -0.20 1.18 -0.36 -0.32 0.47	0/18
GFTLNDYGIS	VIYSDGRRTFYSDSVK	GRTAGTFFS	nd nd nd nd nd 1.98	0/18
GETLNDYGIS	VIYSDGRRTMYIDSVK	GRAAGTFDS	1.64 1.61 2.15 1.84 1.77 1.81	0/18
GFTLNEYGIS	VIYSDGMRTFYGDSVK	GRAAGTFNS	nd nd nd nd nd nd	0/18
GFDLNDYGIS	VIYSDGRRTFYGDAVK	GRIAGTFDI	1.16 0.92 0.69 0.47 0.65 1.27	0/18
GFTLNEYGIS	VIYSDGRRTMYTDSVK	GREAGTFDS	0.29 0.01 -0.06 -0.19 0.18 0.32	1/18 (0.63)
GFNLNEYGIS	VIYSDGRRTFYADSVK	GRDAGTFDS	1.26 1.24 1.14 1.18 0.91 1.05	0/18
GFTLNDYGIS	VIYSDGRRTHYMDSVK	GRAAGTFDS	1.75 1.25 1.63 3.49 1.48 1.21	1/18 (0.78)
GFTLNEYGIS	VIYSDGRRTFYGDSVK	GRDAGTFDS	0.79 0.92 0.77 1.06 1.25 1.41	1/18 (2.57)
KFTLNEYGIS	VIYSDGRRTFYQDSVK	GRCAGTFDS	nd nd nd nd nd nd	0/18
GFDLNEYGIS	VIYSDGRRTFYTDSVK	GRNAGTFDS	-0.63 -0.65 -1.10 -1.33 -0.98 -1.18	0/18
GFDLNSYGIS	VIYSDGRRTFYGDDVK	GRAAGHFVS	nd nd nd nd nd nd	0/18
GFELNEYGIS	VIYSDGRRTFYDDSVK	GRFAGTFDS	0.39 0.10 0.20 0.26 0.03 0.55	0/18
GFNLNSYGIS	VIYSDGRRTFYGDSVK	GQLAGTFDS	1.06 0.96 1.18 0.70 0.40 0.63	0/18
GFQLNDYGIS	VIYSDGRRTFYADHVK	GKAAGTFDS	-0.18 nd 0.62 nd nd -0.31	0/18
GFTLNEYGIS	VIYSDGRRTFYGDSVK	GRAAWTFCV	nd nd nd nd nd nd	0/18
GFTLNQYGIS	VIYSDGKRTFYHDSVK	GRAAGTFDS	1.09 2.13 nd 2.59 2.75 1.85	0/18
GFSLNEYGIS	VIYSDGTRTFYSDSVK	GRAAGTFDS	0.11 -0.11 -0.07 -0.36 -0.12 0.04	0/18
GFFLNEYGIS	VIYSDGRRTFYGDSVK	GTAAGTFDS	1.38 nd nd nd nd nd	0/18
DFTLNEYGIS	VIYSDGRRTFYGDSVK	GRAAVTFDM	nd nd nd nd nd nd	0/18
GFTLNSYGIS	VIYADGRRTFYGDSVK	GRAAATFDQ	nd nd nd nd nd nd	0/18
GFHLNSYGIS	VIYSDGRRTFYIDSVK	GRLAGTFDS	nd nd nd nd nd nd	0/18

The closing 3 entries, repeated:

{"CDR-H1": "DFTLNEYGIS", "CDR-H2": "VIYSDGRRTFYGDSVK", "CDR-H3": "GRAAVTFDM", "log10 Kd (nM) by replicate": "nd nd nd nd nd nd", "empty controls": "0/18"}
{"CDR-H1": "GFTLNSYGIS", "CDR-H2": "VIYADGRRTFYGDSVK", "CDR-H3": "GRAAATFDQ", "log10 Kd (nM) by replicate": "nd nd nd nd nd nd", "empty controls": "0/18"}
{"CDR-H1": "GFHLNSYGIS", "CDR-H2": "VIYSDGRRTFYIDSVK", "CDR-H3": "GRLAGTFDS", "log10 Kd (nM) by replicate": "nd nd nd nd nd nd", "empty controls": "0/18"}